Results published in paper PMC2935290 (Journal of immunology (Baltimore, Md. : 1950), 2010).

Experiments:
[1] = target: T1, HLA-DPB1*0201 (Homo sapiens, UniProt P04440+P20036, A65V/A84D/A85E/K98E); test: biochemical; type: binding
T1 sequence (P04440 30-258 A65V/A84D/A85E/K98E): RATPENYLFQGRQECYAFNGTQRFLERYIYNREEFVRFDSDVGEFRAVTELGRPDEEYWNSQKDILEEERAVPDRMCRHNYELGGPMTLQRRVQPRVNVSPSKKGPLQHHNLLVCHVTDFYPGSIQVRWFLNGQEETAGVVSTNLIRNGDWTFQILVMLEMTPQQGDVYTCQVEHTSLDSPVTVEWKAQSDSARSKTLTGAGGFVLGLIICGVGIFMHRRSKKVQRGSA
T1 sequence (P20036 29-260): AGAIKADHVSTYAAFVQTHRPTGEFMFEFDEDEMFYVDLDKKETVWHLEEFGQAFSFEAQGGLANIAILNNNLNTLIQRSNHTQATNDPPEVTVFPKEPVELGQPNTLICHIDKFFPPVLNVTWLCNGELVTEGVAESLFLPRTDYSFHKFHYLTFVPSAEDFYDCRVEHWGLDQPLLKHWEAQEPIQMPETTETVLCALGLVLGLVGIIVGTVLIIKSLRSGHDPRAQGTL

[2] = target: T2, HLA-DPB1*0402 (Homo sapiens, UniProt P04440+P20036, A65V/A84D/A85E/L207M); test: biochemical; type: binding
T2 sequence (P04440 30-258 A65V/A84D/A85E): T1 sequence (P04440 30-258 A65V/A84D/A85E/K98E) with E69K
T2 sequence (P20036 29-260): T1 sequence (P20036 29-260)

CC(C)C[C@H](NC(=O)[C@H](CC(=O)O)NC(=O)[C@H](CO)NC(=O)CNC(=O)[C@H](Cc1c[nH]cn1)NC(=O)[C@@H](NC(=O)[C@@H](NC(=O)[C@H](CS)NC(=O)[C@H](C)NC(=O)[C@H](CCCCN)NC(=O)[C@H](C)NC(=O)[C@H](CC(=O)O)NC(=O)[C@H](CCCNC(=N)N)NC(=O)[C@@H]1CCCN1C(=O)[C@@H](N)CC(N)=O)C(C)C)C(C)C)C(=O)N[C@@H](CCCCN)C(=O)O
IC50 [1]: 2.36 µM
IC50 [2]: 6.4 µM

Where a chain is given by its changes, count along the chain named.
